Assay: Solubility of the isolated product in organic solvents, as noted in the synthesis examples
Assay type: physicochemical

Substance	soluble in cyclohexane (cyclohexane)	soluble in hexane (hexane)
[(C13H27)2NH2]4{(C6H5P)2Mo5O21} [Example 21]	soluble	
[(C12H25)3NH]4{(HP)2Mo5O21} [Example 20]		soluble

Reference: patent EP0755938B1, “Ligated polyoxometalates and method for their synthesis” (THE B.F. GOODRICH COMPANY, priority 1995, dated 1997)
